Laboratory results published in patent EP0076669A1, “Novel 3-phenyl-1-indanamines, pharmaceutical compositions and methods of preparation” (KEFALAS A/S, priority 1981, dated 1983).
Counter-ions that a name gives are not always drawn.

The chains behind the UniProt entries cited, without tags or fusion partners.
UniProt P23977, whole entry: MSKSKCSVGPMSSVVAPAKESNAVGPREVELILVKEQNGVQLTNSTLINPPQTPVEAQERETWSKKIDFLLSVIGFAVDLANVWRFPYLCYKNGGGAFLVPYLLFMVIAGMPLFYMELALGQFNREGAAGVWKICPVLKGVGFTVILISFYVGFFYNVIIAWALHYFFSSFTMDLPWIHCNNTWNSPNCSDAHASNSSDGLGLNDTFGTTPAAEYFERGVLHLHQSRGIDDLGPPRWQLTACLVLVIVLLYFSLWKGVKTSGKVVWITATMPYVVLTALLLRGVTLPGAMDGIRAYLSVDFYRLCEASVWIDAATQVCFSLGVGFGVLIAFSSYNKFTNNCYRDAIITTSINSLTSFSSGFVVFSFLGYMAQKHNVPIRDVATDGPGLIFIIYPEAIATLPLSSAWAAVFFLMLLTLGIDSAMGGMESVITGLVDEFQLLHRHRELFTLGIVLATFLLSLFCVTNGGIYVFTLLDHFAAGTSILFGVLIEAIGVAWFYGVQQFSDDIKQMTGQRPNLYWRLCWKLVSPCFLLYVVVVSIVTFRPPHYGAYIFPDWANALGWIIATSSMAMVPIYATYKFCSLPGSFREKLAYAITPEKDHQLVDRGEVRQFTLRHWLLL

What follows are molecules tested against T1, ^3H-DA uptake in striatal synaptosomes (Rattus norvegicus, UniProt P23977) (assay: biochemical).
T1 construct: the two corpura striata are dissected out and gently homogenized; from tissue; host or cells: rat corpus striatum, synaptosomal P2 fraction
Set-up: species or system Rats
Description: ^3H-DA uptake in striatal synaptosomes in vitro.
0.32 M sucrose containing 1 mM Nialamide
Krebs-Ringer-phosphate buffer, pH 7.4
3,4-dihydroxyphenylethylamine [ethyl-1-^3H(N)] = ^3H-DA, spc. act. app. 15 Ci/mmol, New England Nuclear
Thomas Tissue Grinder, clearance 0.004-0.006 inch.
Rats are killed by a blow to their head, exsanguinated and their brains removed. The brain is placed on a precooled glassplate, and the two corpura striata are dissected out and gently homogenized in 40 volumes of ice cold 0.32 M sucrose containing 1 mM of nialamide using a hand homogenizer with teflon pestle. The P2-fraction (synaptosomal fraction) is obtained by centrifugation (600 g, 10 min., 25000 g, 55 min. 4 °C) and suspended in 40 volumes of a modified Krebs-Ringer-phosphate buffer, pH 7.4. To 200µl of the synaptosomal fraction on ice are added 3700 µl modified Krebs-Ringer-phosphate buffer - containing test compounds. After a preincubation at 37°C for 5 min. […] The incubation is terminated by filtering the samples under vacuum through Millipore filters with a wash of 5 ml buffer containing 10 µM of unlabelled DA. After solubilizing the filters in 1 ml of cellosolve the radioactivity is determined by liquid scintillation counting after the addition of 10 ml of Insta-Gel. The unspecific binding of ^3H-DA is determined by incubating control samples on ice instead of at 37 °C.
All experiments are performed in ttriplicate.
The mean of all control samples and ice samples are calculated.
`CN[C@@H]1C[C@@H](c2ccc(Cl)c(Cl)c2)c2ccccc21` (relative stereo) [Lu 19-005-c, trans-N-methyl-3-(3',4'-dichlorophenyl)-I-indanamine] gave an IC50 of 0.59 nM.
`CN[C@@H]1C[C@H](c2ccc(Cl)c(Cl)c2)c2ccccc21` (relative stereo) [Lu 19-006-c, cis-N-methyl-3-(3',4'-dichlorophenyl)-1-indanamine] gave an IC50 of 5.2 nM.
`CN[C@@H]1C[C@@H](c2ccc(Cl)c(Cl)c2)c2ccccc21` (single isomer, unassigned) [Lu 20-042-c, (+) trans N-methyl-3-(3,4-dichlorophenyl)-1-indanamine, hydrochloride] showed an IC50 of 1.9 nM.
`CNC1CC(c2ccc(Cl)c(Cl)c2)c2ccccc21` (single isomer, unassigned; (-)) [Lu 20-043-c, (-) trans N-methyl-3-(3,4-dichlorophenyl)-1-indanamine, hydrochloride] gave an IC50 of 2.2 nM.
